Test results taken from patent publication US10272087B2, “Pteridines as FGFR inhibitors” (ASTEX THERAPEUTICS LIMITED, priority 2012, dated 2019).

Legend:
Experiment in all cases: cells
[1] = system: Ba/F3-FGFR1-transfected cells; details: read-out: BAF3-FGFR1 (MIN IL3 pIC50) (converted)
[2] = system: Ba/F3-KDR-transfected cells; details: read-out: BAF3-KDR (MIN IL3 pIC50) (converted)
[3] = system: Ba/F3-FGFR3-transfected cells; details: read-out: BAF3-FGFR3 (MIN IL3 pIC50) (converted)
[4] = system: Ba/F3-FGFR4-transfected cells; details: read-out: BAF3-FGFR4 (pIC50) (converted)

SMILES	IC50 [1] [nM]	IC50 [2] [nM]	IC50 [3] [nM]	IC50 [4] [nM]
COc1cc(OC)c(F)c(N(Cc2nccn2S(=O)(=O)N(C)C)c2ncc3ncc(-c4cnn(C)c4)nc3n2)c1F [Compound 1]	100	7940	100	1580
COc1cc(OC)c(F)c(N(Cc2ncc[nH]2)c2ncc3ncc(-c4cnn(C)c4)nc3n2)c1F [Compound 2]	–	~794	~7.94	–
COc1cc(OC)c(F)c(N(C[C@H]2CCC(=O)N2)c2ncc3ncc(-c4cnn(C)c4)nc3n2)c1 [Compound 10]	–	> 10000	–	–
COc1cc(OC)c(F)c(N(C[C@@H]2CCC(=O)N2)c2ncc3ncc(-c4cnn(C)c4)nc3n2)c1 [Compound 11]	–	> 10000	–	–
COc1cc(OC)c(F)c(N(Cc2ncc[nH]2)c2ncc3ncc(-c4cnn(C)c4)nc3n2)c1 [Compound 13]	–	3980	–	–
